The record followed here is ChEMBL document CHEMBL5241069, “A key review on oxadiazole analogs as potential methicillin-resistant Staphylococcus aureus (MRSA) activity: Structure-activity relationship studies” (Eur J Med Chem, 2021).

The subject of this experiment is Staphylococcus aureus. The conditions noted are these: 032.
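Further: growth inhibition of the bacteria, determined by serial dilution following CLSI guidelines.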

One may read the MIC as the lowest concentration that inhibits growth of the organism. Regarding GENTAMICIN, the lowest concentration to inhibit growth (MIC) was 0.5 µg/mL.
